We go through one compound from patent US8912343B2, “Solid forms of (1r,4r)-6′-fluoro-(N, N-dimethyl)-4-phenyl-4′,9′-dihydro-3′H-spiro[cyclohexane-1,1′-pyrano-[3,4,b]indol]-4-amine and sulfuric acid” (dated 2014).

The nature of series [1]: Physical and chemical stability (storage, purity by HPLC, PXRD).
Series [2] is described as follows: Solubility in water (saturated solutions, concentration by HPLC). The note with it: RT.

In the case of `CN(C)[C@]1(c2ccccc2)CC[C@]2(CC1)OCCc1c3cc(F)ccc3[nH]c12`, in series [1] (4 weeks 40° C./75% r.h. and 1 week 80° C.), the “outcome of stability testing (summary)” value is given as “clearly changes”. For the same compound, the “PXRD after 1 week at 80° C.” value in series [1] (closed vials) was “new peaks”. In series [1] (closed vials, HPLC), the “Purity after 1 week at 80° C.” value is recorded as 99.7 area %. Moreover, in series [1] (open vials), the “PXRD after 4 weeks at 40° C., 75% r.h.” value was “new peaks”. Moreover, in series [1] (open vials, HPLC), the “Purity after 4 weeks at 40° C., 75% r.h.” value was 99.5 area %. The “Ref. Purity” value in series [1] (reference, before storage, HPLC) is recorded as 99.7 area %. Also, the solubility (usually the concentration that dissolves in the medium under given conditions) in series [2] (bidest H2O, saturated solution, 24 h equilibration time, HPLC) is under 0.30 µg/mL. Moreover, the “resulting pH” value in series [2] (pH of the saturated solution in bidest H2O, 24 h) is 8.4.
